From publication PMC8473290 (Viruses, 2021) come the findings set out here.

Peptide text beside a SMILES is read from it.

In one series the test system is TB40-BAC4. Format: cell-based, Human cytomegalovirus. Particulars: 2 h.
In the next series the test system is HSV-2 R6. The series can be described thus: Inhibition of cell-free HSV-2 infection of HFFs. Particulars: versus TB40-BAC4, 1 h preincubation, MOI 1, fixed 6 h p.i. Format: cell-based, herpes simplex virus 2.
For the next series, the system named is HSV-1 R10.2. The series can be described thus: Inhibition of cell-free HSV-1 infection of HFFs. Particulars: versus TB40-BAC4, 1 h preincubation, MOI 1, fixed 6 h p.i. Format: cell-based, herpes simplex virus 1.
The test system of a further series is HFFs. Format: cell-based, human.

On to `CC[C@H](C)[C@H](NC(=O)[C@H](C)NC(=O)[C@H](CO)NC(=O)[C@H](CC(=O)O)NC(=O)[C@H](CC(=O)O)NC(=O)[C@H](CC(=O)O)NC(=O)[C@H](CCC(=O)O)NC(=O)[C@@H](NC(=O)[C@@H](NC(=O)[C@@H](NC(=O)[C@H](CC(C)C)NC(=O)[C@H](Cc1ccc(O)cc1)NC(=O)[C@H](CC(=O)O)NC(=O)[C@@H](NC(=O)[C@H](CCSC)NC(=O)CNC(=O)[C@H](CC(C)C)NC(=O)[C@@H]1CCCN1C(=O)[C@@H](NC(=O)[C@H](Cc1ccccc1)NC(=O)[C@H](C)NC(=O)[C@@H](NC(=O)[C@H](CC(=O)O)NC(=O)[C@@H]1CCCN1C(=O)[C@H](CC(=O)O)NC(=O)[C@@H]1CCCN1C(=O)[C@@H](NC(=O)[C@H](Cc1ccc(O)cc1)NC(=O)[C@@H](NC(=O)[C@H](Cc1ccc(O)cc1)NC(=O)[C@@H](NC(=O)[C@H](Cc1c[nH]cn1)NC(=O)[C@H](CCCNC(=N)N)NC(=O)CN)[C@@H](C)CC)[C@@H](C)CC)C(C)C)C(C)C)C(C)C)[C@@H](C)O)C(C)C)[C@@H](C)CC)C(C)C)C(=O)N[C@H](C(=O)N1CCC[C@H]1C(=O)N[C@@H](CS)C(=O)N[C@@H](CCCNC(=N)N)C(=O)N[C@H](C(=O)N[C@H](C(=O)O)[C@@H](C)O)[C@@H](C)O)[C@@H](C)CC` [GT40], for which, in the series on TB40-BAC4, the EC50 (commonly the midpoint of the concentration-response curve) amounted to 2600 nM.

Consider `CC[C@H](C)[C@H](NC(=O)[C@H](Cc1ccc(O)cc1)NC(=O)[C@@H](NC(=O)[C@H](Cc1c[nH]cn1)NC(=O)[C@H](CCCNC(=N)N)NC(=O)CN)[C@@H](C)CC)C(=O)N[C@@H](Cc1ccc(O)cc1)C(=O)N[C@H](C(=O)N1CCC[C@H]1C(=O)N[C@@H](CC(=O)O)C(=O)N1CCC[C@H]1C(=O)N[C@@H](CC(=O)O)C(=O)N[C@H](C(=O)N[C@@H](C)C(=O)N[C@@H](Cc1ccccc1)C(=O)N[C@H](C(=O)N1CCC[C@H]1C(=O)N[C@@H](CC(C)C)C(=O)NCC(=O)N[C@@H](CCSC)C(=O)N[C@H](C(=O)N[C@@H](CC(=O)O)C(=O)N[C@@H](Cc1ccc(O)cc1)C(=O)N[C@@H](CC(C)C)C(=O)N[C@H](C(=O)N[C@H](C(=O)N[C@H](C(=O)N[C@@H](CCC(=O)O)C(=O)N[C@@H](CC(=O)O)C(=O)N[C@@H](CC(=O)O)C(=O)O)C(C)C)[C@@H](C)CC)C(C)C)[C@@H](C)O)C(C)C)C(C)C)C(C)C` [GD30] (H-GRHIYIYVPDPDVAFVPLGMTDYLVIVEDD-OH; N-terminus and C-terminus assumed), for which the “Shift in EC50 toward the higher dose range compared to HCMV” value in the series with HSV-2 R6 was found to be 9.6 fold; in the series with HSV-1 R10.2 it was 5.9 fold. Besides, the “Cell viability relative to DMSO containing medium” value in the series with HFFs is “does not affect cell viability”. In the series on TB40-BAC4, the EC50 was 2100 nM.
